The test system of one data set is OE19 cells. As to the kind of experiment: Alamar Blue cell viability assay. Conditions: HER2+ OE19 cells; dose range, up to 96 h. It counts as cell-based, human.
For data set [1] the following is noted: T-DM1 0.25 nmol combined with IR.

ado-trastuzumab emtansine [T-DM1]: the “cytotoxic potency (comparison)” value with OE19 cells is reported as “more potent cytotoxic drug”. In addition, in data set [1], the mouse weight result is reported as “mice maintained their weight”.

(Values after patent US20180140703A1, “TUMOR RADIOSENSITIZATION WITH ANTIBODY CONJUGATES” (The Regents of the University California, priority 2016, published 2018).)
